From ChEMBL document CHEMBL5385915 (J Med Chem, 2024)

Assay: Efflux ratio of permeability across basolateral to apical side over apical to basolateral side in human Caco-2 cells incubated for 2 hrs by LC-MS/MS analysis
Conditions: caco-2, 2 h

Question: For `Brc1cc(Br)cc([C@H]2C[C@@H](CN3CCCC3)N2Cc2ccccc2Br)c1`, which Ratio is on record?
Answer: Its Ratio is under 1.
